These results are taken from ChEMBL document CHEMBL4706639, “Discovery of Novel Azetidine Amides as Potent Small-Molecule STAT3 Inhibitors” (J Med Chem, 2021).

Sequences of proteins named here, by UniProt entry; tags and fusion partners are left off.
UniProt P42227, whole entry: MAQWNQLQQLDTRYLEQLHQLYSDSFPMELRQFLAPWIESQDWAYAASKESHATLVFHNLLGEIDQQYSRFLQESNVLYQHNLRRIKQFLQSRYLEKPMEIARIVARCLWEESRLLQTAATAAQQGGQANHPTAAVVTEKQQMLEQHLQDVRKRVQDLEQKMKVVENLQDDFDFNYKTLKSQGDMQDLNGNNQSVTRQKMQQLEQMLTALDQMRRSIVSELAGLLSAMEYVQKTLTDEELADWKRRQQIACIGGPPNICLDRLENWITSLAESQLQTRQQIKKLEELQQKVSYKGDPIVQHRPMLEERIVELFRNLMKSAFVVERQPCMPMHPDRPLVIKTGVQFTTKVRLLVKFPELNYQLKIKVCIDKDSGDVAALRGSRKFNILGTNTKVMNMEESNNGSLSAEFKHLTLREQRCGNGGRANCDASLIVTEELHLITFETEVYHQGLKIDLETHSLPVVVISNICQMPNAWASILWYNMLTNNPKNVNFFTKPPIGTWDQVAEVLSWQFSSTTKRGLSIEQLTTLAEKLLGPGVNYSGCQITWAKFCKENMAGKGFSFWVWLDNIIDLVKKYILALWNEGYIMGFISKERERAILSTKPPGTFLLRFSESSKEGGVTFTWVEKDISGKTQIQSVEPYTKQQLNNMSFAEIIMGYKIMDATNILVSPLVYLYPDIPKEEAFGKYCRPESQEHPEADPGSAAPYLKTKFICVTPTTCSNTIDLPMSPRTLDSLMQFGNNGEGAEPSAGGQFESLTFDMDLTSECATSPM
UniProt P40763, whole entry: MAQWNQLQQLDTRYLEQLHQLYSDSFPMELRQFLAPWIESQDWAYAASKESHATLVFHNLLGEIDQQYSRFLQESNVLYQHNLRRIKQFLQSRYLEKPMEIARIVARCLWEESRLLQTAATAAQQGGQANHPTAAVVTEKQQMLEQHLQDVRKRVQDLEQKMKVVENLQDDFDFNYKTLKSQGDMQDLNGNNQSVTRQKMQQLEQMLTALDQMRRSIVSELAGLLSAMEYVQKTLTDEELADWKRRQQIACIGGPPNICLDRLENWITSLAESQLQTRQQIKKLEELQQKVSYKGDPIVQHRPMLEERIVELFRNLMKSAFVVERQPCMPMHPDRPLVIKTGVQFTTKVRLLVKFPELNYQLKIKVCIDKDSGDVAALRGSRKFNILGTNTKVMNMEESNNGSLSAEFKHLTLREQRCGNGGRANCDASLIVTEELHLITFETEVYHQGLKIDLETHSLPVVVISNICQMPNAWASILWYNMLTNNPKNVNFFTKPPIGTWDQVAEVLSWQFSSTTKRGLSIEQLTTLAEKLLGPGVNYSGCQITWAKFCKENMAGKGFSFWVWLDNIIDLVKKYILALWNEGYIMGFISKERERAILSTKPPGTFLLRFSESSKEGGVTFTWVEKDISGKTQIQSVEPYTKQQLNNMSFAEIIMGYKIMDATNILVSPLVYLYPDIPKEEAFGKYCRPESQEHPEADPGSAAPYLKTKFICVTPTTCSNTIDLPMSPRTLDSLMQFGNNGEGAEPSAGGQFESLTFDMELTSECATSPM

Experiment [1] addresses Signal transducer and activator of transcription 3 (Mus musculus, UniProt P42227). Kind of experiment: Inhibition of oligonucleotide [32P]-labelled 5'-AGCITCATTTCCCGTAAATCCCTA probe binding to STAT3 SH2 domain in mouse NIH3T3/v-Src nuclear extract preincubated for 30 mins followed by hSIE probe addition by EMSA analysis. It is filed as subcellular, Nucleus. (A gel shift assay detects complexes by their altered migration in electrophoresis.)

Experiment [2] deals with Signal transducer and activator of transcription 3 (Homo sapiens) (UniProt P40763). Kind of experiment: Binding affinity to STAT3 (unknown origin) assessed as change in enthalpy by isothermal titration calorimetry. On the technique in general: In ITC the heat of successive injections is recorded.
For experiment [3], the system named is MDA-MB-231. Kind of experiment: Antiproliferative activity against human MDA-MB-231 cells assessed as reduction in cell viability incubated for 72 hrs by CyQuant assay. To be noted: MDA-MB-231, 72 h. It is filed as functional, cell-based.

The term IC50 denotes the midpoint of a concentration-inhibition curve. Read a high IC50 as lower potency. For `O=C(O)c1ccc(N(Cc2cnc(C3CCCCC3)cn2)C(=O)[C@H]2CCN2S(=O)(=O)c2c(F)c(F)c(F)c(F)c2F)c(F)c1`, in experiment [1], the IC50 worked out at 1720 nM. Broadly, the EC50 is the midpoint of the concentration-response curve. For the molecule `O=C1OCc2cc(N(Cc3ccc(C4CCCCC4)cn3)C(=O)[C@H]3CCN3S(=O)(=O)c3c(F)c(F)c(F)c(F)c3F)ccc21`, in experiment [2], the deltaH was -5.43 kcal/mol. Besides, the EC50 in experiment [3] was 900 nM.
